Earlier results in PMC6353898, “A Rational Approach for Creating Peptides Mimicking Antibody Binding” (Scientific Reports, 2019).

Test system: EGFR phosphorylation
Design: method as in PMID 23698748
Conditions: cited from earlier work

Cetuximab: antibody that binds domain III of the extracellular region of EGFR
EGFR phosphorylation inhibition: around 50%
